One data set relates to Hep-2 cells. Briefly: Cytotoxicity in Hep-2 cells, MTS cell viability assay. Conditions: read-out: CC50 Hep-2.
The subject of a further data set is MDCK cells. Briefly: Cytotoxicity in MDCK cells, MTS cell viability assay. As to conditions: read-out: CC50 MDCK. For orientation: Tetrazolium assays rely on reduction of a dye to a coloured formazan, in cell work by metabolically active cells.
The next data set has as its system Vero cells. The data set can be described thus: Cytotoxicity in Vero cells, MTS cell viability assay. As to conditions: read-out: CC50 Vero.
The next data set deals with HEL cells. The data set can be described thus: Cytotoxicity in HEL cells, MTS cell viability assay. Conditions: read-out: CC50 HEL.

Structures are written as SMILES. Only a part of the results on these compounds is given; other tests are left out.

As a reminder, the CC50 is the concentration giving 50% cytotoxicity. `CCN(CC)CCn1c(Cn2nc3ccccc3n2)nc2cc(C(C)=NN)ccc21`: the CC50 was over 100 µM with Hep-2 cells, 33 µM in the data set on MDCK cells, over 100 µM in the data set with Vero cells and over 100 µM in the data set on HEL cells.

These data come from PMC7180491, “Synthesis and Biological Evaluation of Novel (thio)semicarbazone-Based Benzimidazoles as Antiviral Agents against Human Respiratory Viruses” (Molecules, 2020).
